Results on 1 substance are retold here after patent US20260199261A1, “SOLID COMPOSITION CONTAINING CO-CRYSTAL OF REDUCED COENZYME Q10” (KANEKA CORPORATION, priority 2023, published 2026).

A short description of this series: Oxidation stability evaluation: QH residual rate (change in QH ratio by HPLC) after storage. Format: physicochemical. As to conditions: storage at 40° C. and 75% RH for 30 days. Here is the method: The weight ratio of the reduced coenzyme Q10 to the total coenzyme Q10 (i.e., reduced coenzyme Q10/(oxidized coenzyme Q10+reduced coenzyme Q10)) is defined as a “QH ratio”. The QH ratio was determined by the following HPLC analysis. For the evaluation of oxidation stability, a rate of the change in the QH ratio at the end of the evaluation from that at the beginning of the evaluation was defined as “QH residual rate”, and the QH residual rate determined by the following formula was used as a measure of oxidation stability.
• Column: SYMMETRY C18 (manufactured by Waters Corporation); 250 mm (in length) and 4.6 mm (in inner diameter) • Mobile phase: C2H5OH:CH3OH=4:3 (v:v) • Detection wavelength: 210 nm • Flow rate: 1 mL/min […]
The reduced coenzyme Q10/nicotinamide co-crystal in an amount of 1 g each was weighed into two 30-ml glass vials (under the operating environment of 28° C. and 50% RH). One of the vials was kept in an open state, the other vial was hermetically sealed with a screw cap (sealed state), these vials were stored under the environment of 40° C. and 75% RH for 30 days, and the residual rate of reduced coenzyme Q10 was evaluated. […]

“reduced coenzyme Q10/nicotinamide co-crystal [compound 2]”: the “QH residual rate (%) Sealed state” value (vial hermetically sealed with screw cap) worked out at 92.9%. In addition, the “QH residual rate (%) Open state” value (vial in open state) amounted to 90.9%.
